Results as given in patent US9714212B2, “Chemical compounds derived from normemantine and use of same in the medical field” (M2I DEVELOPMENT, priority 2013, dated 2017).

Assay: Toxicity after a single intravenous administration in mice
Type: in vivo, mice C57/Black 6J
Details: male mice, single 0.125 μg/kg intravenously
Procedure: The objective of this test is to assess, qualitatively and quantitatively, possible toxic phenomena and the delay before onset thereof after a single administration of a predetermined dose of 0.125 μg/kg of body weight (which would correspond to more than 10^4 times the dose administered to humans). The tests were carried out on 5 male mice and the results were compared with those of 3 control mice receiving only 0.2 ml of 0.9% NaCl solution. All the mice are the species C57/Black 6J provided by Charles River Laboratories (France) and about 8 weeks old. The average weight of the mice at the beginning of the tests is about 32 g after an acclimation period of 2 weeks. The animals are housed three per cage (31 cm×46 cm×19 cm) at a temperature of 25° C.±2° C.
The volume administered to each mouse is defined as […] and is administered once intravenously by means of a suitable syringe and needle.
The animals are observed regularly the day of administration (after 30 minutes, 1 hour, 2 hours, 3 hours and 4 hours), and then once each day for at least 14 days. All the observations were unremarkable.
As these doses are much higher than those envisaged for labeling NMDA receptors, this product will be well tolerated for this application.

NC12CC3CC(C1)CC(CCF)(C3)C2 [^18F-fluoroethyl normemantine]
autopsy findings after 14 days: no pathological change
observations after administration (observed 30 minutes to 4 hours and daily for at least 14 days): unremarkable
